According to patent US10966937B2, “Compositions and methods for delivery of polyunsaturated fatty acid derivatives and analogs” (Cytometix, Inc., priority 2015, dated 2021):

Tests used:
[1] = Phase 1 clinical trial of oral CMX-020, pharmacokinetics; settings: human, oral 50 mg and 100 mg, after 5 days of BID dosing
[2] = test system: acute pain tail flick assay; test: Acute pain tail flick assay, CMX-020 and Remifentanil alone or co-administered; settings: co-administered with Remifentanil intravenously over 10 minutes; 50%, 75% and 90% inhibition of tail flick response

With CCCCCC(=O)N(CC/C=C\C/C=C\C/C=C\CCCC(=O)NC1CC1)C(C)C [CMX-020] the “time with therapeutic levels (PK levels above 40 ng/ml)” value [1] was 4 to 8 h and the “analgesic effect of the combinational therapy (isobologram)” value [2] was “greater than a simple additive effect”.
